Assays:
[1] = target: T1, CB1 (Homo sapiens, UniProt P21554); experiment: CB1 activated Gαq16-coupled intracellular calcium mobilization assay in CHO-K1 cells (apparent affinity Ke); format: cell-based; conditions: Table 2
T1 construct: expressed in transfected cells; host or cells: CHO-K1 (membranes)

The chains behind the UniProt entries cited, without tags or fusion partners.
UniProt P21554, whole entry: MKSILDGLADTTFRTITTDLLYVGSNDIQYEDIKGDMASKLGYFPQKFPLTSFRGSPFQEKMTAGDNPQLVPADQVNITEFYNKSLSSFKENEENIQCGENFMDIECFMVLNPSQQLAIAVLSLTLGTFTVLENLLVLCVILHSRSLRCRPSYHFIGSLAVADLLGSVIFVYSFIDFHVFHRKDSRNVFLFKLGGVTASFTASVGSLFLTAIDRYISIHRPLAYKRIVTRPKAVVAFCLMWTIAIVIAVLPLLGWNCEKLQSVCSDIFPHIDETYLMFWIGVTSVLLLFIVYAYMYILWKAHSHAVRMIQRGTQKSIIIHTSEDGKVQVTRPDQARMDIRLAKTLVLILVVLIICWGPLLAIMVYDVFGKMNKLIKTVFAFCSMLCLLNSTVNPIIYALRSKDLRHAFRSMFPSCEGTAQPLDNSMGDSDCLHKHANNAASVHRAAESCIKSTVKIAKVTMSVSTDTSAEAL

[2] = target: T1, CB1; experiment: Radioligand displacement of [3H]SR141716 at CB1; format: binding; conditions: Table 3; radioligand [3H]SR141716
[3] = target: T1, CB1; experiment: Displacement of [3H]CP55940 in membranes of CHO-K1 cells over-expressing CB1; format: binding; conditions: Table 3; radioligand [3H]CP55940

Structure (SMILES) | Kb [1] | Ki [2] | Ki [3]
Cc1c(C(=O)NCCCCCCCNS(C)(=O)=O)nn(-c2ccc(Cl)cc2Cl)c1-c1ccc(Cl)cc1 [5-(4-chlorophenyl)-1-(2,4-dichlorophenyl)-N-(7-methanesulfonamidoheptyl)-4-methyl-1H-pyrazole-3-carboxamide] | 0.207 µM |  | 
Cc1c(C(=O)NCC2CCC(CNS(C)(=O)=O)CC2)nn(-c2ccc(Cl)cc2Cl)c1-c1ccc(Cl)cc1 (mixture of isomers) [drawing 37, 5-(4-chlorophenyl)-1-(2,4-dichlorophenyl)-N-{[4-(methanesulfonamidomethyl)cyclohexyl]methyl}-4-methyl-1H-pyrazole-3-carboxamide] | 0.113 µM |  | 
Cc1c(C(=O)NCC2CCC(CNS(N)(=O)=O)CC2)nn(-c2ccc(Cl)cc2Cl)c1-c1ccc(Cl)cc1 (mixture of isomers) [drawing 38, 5-(4-chlorophenyl)-1-(2,4-dichlorophenyl)-4-methyl-N-({4-[(sulfamoylamino)methyl]cyclohexyl}methyl)-1H-pyrazole-3-carboxamide] | 0.106 µM |  | 
Cc1c(C(=O)NCC2CCC(CNS(N)(=O)=O)CC2)nn(-c2ccc(Cl)cc2Cl)c1-c1ccc(Cl)cc1 (mixture of isomers) [drawing 56] |  | 0.015 µM | 0.107 µM

Source: US9133128B2, “Pyrazole derivatives as cannabinoid receptor 1 antagonists” (Research Triangle Institute, priority 2011, dated 2015)
